Assay outcomes as filed in PubChem BioAssay.
miR-21 FLuc – miR-21 reporter, rising signal; Potency, µM (titrated, usually from 38.3 µM), without a hit: at the highest dose reporter change, positive = more light; AID 2288; 340,000 tested, under 10 active; HeLa miR-21 FLuc reporter, luciferase, 48 h; active = well fitted rising curve with a large enough effect; inconclusive = small, poorly fitted or top-dose-only effect; inactive = no such curve, though single readings can be large or run the other way;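 note: % of control where 0% means no effect; miR-21 action dims this reporter so a rising signal means less miR-21 action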
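HeLa cells endogenously expressing miR-21, stably carrying CMV-driven firefly luciferase with a downstream miR-21 binding site, 2000 cells/well. Titrations up to approximately 40 uM, 48 hours; luciferase luminescence read.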
TDP1 cell noCPT – qHTS for Inhibitors of human tyrosyl-DNA phosphodiesterase 1 (TDP1): qHTS in cells in absence of CPT | DT40 Tdp1-/- hTDP1 cells, no CPT, ATP luminescence, 48 h | Potency, µM (titrated, usually from 46.2 µM), inactives show at the highest dose activity change, negative = growth inhibition, hits mostly inhibitors | 420,000 compounds, 15% hits; also: potency is read from the fitted curve at half-maximal effect; % is scaled to controls: 0 for no effect and ±100 for the full control effect; nearly all actives have a fitted effect of over 55% in size
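Growth kinetics read by CellTiter-Glo luminescence after ≥48 hr at 37 °C. Cells: DT40 Tdp1-/- stably carrying human TDP1, 400 per well, compound exposure in the absence of CPT (DMSO vehicle).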
TDP1 cell CPT – growth inhibition of DT40 Tdp1-/-;hTDP1 cells with camptothecin (screen for TDP1 inhibitors). chicken DT40 Tdp1-/-;hTDP1 cells + 20 nM CPT, ATP luminescence, 48 h. Potency, µM (top dose mostly 46.2 µM), without a hit: top-dose activity change, negative = growth inhibition, actives largely listed as inhibitors. 420,000 compounds, 12% hits. AID 686979; also: potency is read from the fitted curve at half-maximal effect; % is scaled to controls: 0 for no effect and ±100 for the full control effect; nearly all actives have a fitted effect of over 55% in size
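Chicken DT40 Tdp1-/- cells complemented with human TDP1, 400 cells/well, exposed to compounds plus 20 nM camptothecin for at least 48 h at 37 C; viability read as ATP content by CellTiter-Glo luminescence.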
uPA generation – inhibitors of cell surface uPA generation. cell surface uPA generation assay, qHTS. Potency, µM (doses to about 38.3 µM), inactives show at the top dose activity change, negative = inhibition, actives largely listed as inhibitors. 330,000 compounds, 0.31% hits. AID 540303; active = well fitted inhibition curve with a large enough effect; inconclusive = small, poorly fitted or top-dose-only effect; inactive = no such curve, though single readings can be large or run the other way; tested in mouse RAW 264.7 cells; also: potency is read from the fitted curve at half-maximal effect; % is scaled to controls: 0 for no effect and ±100 for the full control effect; nearly all actives have a fitted effect of over 55% in size
TDP1 inh – blocks human tyrosyl-DNA phosphodiesterase 1. Q9NUW8. recombinant TDP1, AlphaScreen DNA substrate cleavage. Potency, µM (highest dose often 130 µM), without a hit: at the highest dose activity change, negative = inhibition, usual class: inhibitors. 350,000 compounds, 0.28% hits. AID 485290; also: potency is read from the fitted curve at half-maximal effect; % is scaled to controls: 0 for no effect and ±100 for the full control effect; nearly all actives have a fitted effect of over 40% in size
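E. coli-derived human Tdp1, 1 nM final. Cpd preinc 15 min RT; substrate 15 nM final, 5 min RT; AS bead mix 10 ug/ml final, 10 min RT. Signal loss = tyrosine-FITC cleavage. No-enzyme wells = max signal.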
Active calls of the source: *; ? = inconclusive; . = no result; [ ] = remark or other dose. Hits are enriched below; roughly 16% of the tested compounds scored in any of these assays. Unless noted, calls follow the shape of the dose curve; as a rule, active = well fitted curve in the direction sought with a large enough effect; inconclusive = small, poorly fitted or top-dose-only effect, or another doubt; inactive = no such curve, though single readings can be large; an effect the other way counts as inactive or inconclusive.

Results follow in this order: miR-21 FLuc | TDP1 cell noCPT | TDP1 cell CPT | uPA generation | TDP1 inh
- Cc1cc(C)n(CC(=O)NNC(=O)CCCOc2ccc(Cl)cc2C)n1
→ 4% | ? | -19% | 3% | -2%
- CCCC[n+]1ccn(-c2nc3ccccc3nc2[N-]S(=O)(=O)c2cccs2)c1
→ 14% | ? | ? | 3% | -5%
- Cc1cc(Cl)ccc1OCC(=O)OCC(=O)N1CCC(C(N)=O)CC1
→ . | 20% | -7% | ? | 0%
- COc1cc(CN2CCNC(=O)C2CC(=O)NC2CCCCC2)cc(OC)c1 (stereo unspecified)
→ 1% | -5% | 4% | 0% | 3%
- CCc1cc2c(=O)[nH]c(N3CCOCC3)nc2s1
→ -35% | 11% | -10% | 0% | -1%
- Cc1ccc(NCc2nnc(SCC(=O)O)n2-c2ccc(C)cc2)cc1
→ 1% | -8% | 11% | 3% | -11%
- Cc1cc2[nH]c3c4ccccc4nc(C)c3c2cc1C
→ . | 2.6µM* | 3.7µM* | 10µM* | .
- Cc1cc2c(C)nc3ccccc3c2o1
→ -2% | -3% | 6% | 2% | 5%
- Cc1cnc(-c2nc3ccccc3n2C(C(=O)NC(C)(C)C)c2ccncc2)cn1 (stereo unspecified)
→ . | -16% | -13% | . | .
- N#Cc1ccccc1NC(=O)CC1c2ccccc2Oc2ccccc21
→ -6% | 1.8µM* | 2.1µM* | ? | 3%

Further entries follow:
Results follow in this order: miR-21 FLuc | TDP1 cell noCPT | TDP1 cell CPT | uPA generation | TDP1 inh
- Cc1ccc(NS(=O)(=O)c2cc(OCC(N)=O)c(C)cc2Cl)cc1
→ 3% | ? | -25% | -3% | 3%
- CC1Cc2nc(SCC(=O)N3CCCC3)n(C)c(=O)c2S1 (stereo unspecified)
→ -2% | 4% | -2% | 5% | 7%
- CCn1c(SCC(=O)N2CCCC2)nc2c(c1=O)SC(C)C2 (stereo unspecified)
→ 0% | -19% | 1% | 4% | -1%
- CC1Cc2nc(SCC(=O)N3CCN(c4ccccc4)CC3)n(CCc3ccccc3)c(=O)c2S1 (stereo unspecified)
→ 19% | 13µM* | 18µM* | ? | 8%
- CCn1c(SCC(=O)N2CCN(c3ccccc3)CC2)nc2c(c1=O)SC(C)C2 (stereo unspecified)
→ 1% | 21µM* | ? | -3% | 3%
- O=C(CSc1nc2c(c(=O)n1-c1ccccc1)SCC2)N1CCN(c2ccccc2)CC1
→ -5% | ? | 18µM* | 10% | 0%
- CC1Cc2nc(SCC(=O)N3CCN(c4ccccc4)CC3)n(C)c(=O)c2S1 (stereo unspecified)
→ 3% | 13µM* | ? | 6% | 8%
- COCCNC(=O)c1ccc2c(c1)C(=O)c1ccccc1-2
→ -18% | -20% | 15% | -9% | .
- CCCCCCc1cc2cc(-c3nnc(-c4cccc(Cl)c4)o3)c(=O)oc2cc1O
→ 17% | 1% | 11% | . | 1%[12.3 µM]
- Cc1nc2nc(NCc3ccccc3Cl)[nH]n2c(=O)c1Cc1ccccc1
→ -6% | -6% | -4% | . | 10%

Continued:
Results follow in this order: miR-21 FLuc | TDP1 cell noCPT | TDP1 cell CPT | uPA generation | TDP1 inh
- Cc1ccsc1C(=O)N1CCCC(CO)(Cc2ccccc2F)C1 (stereo unspecified)
→ 4% | ? | -23% | 4% | 1%
- CCCC(=O)n1nc(-c2ccco2)nc1N
→ -3% | 0% | 5% | 0% | 5%
- Nc1nc(NCCc2ccc(O)cc2)nc2nc(-c3ccco3)nn12
→ . | 12µM* | 15µM* | . | 13%
- S=C(Nc1ccccc1)N1CCN(Cc2ccccc2)CC1
→ -11% | -6% | -6% | -1% | -5%
- Cc1c(CCC(=O)NC2CC2)c(=O)oc2cc(O)ccc12
→ -4% | -3% | -12% | 4% | .
- Cc1ccc(S(=O)(=O)N2CCN(C(C)C(=O)Nc3ccccc3-c3ccccc3)CC2)cc1 (stereo unspecified)
→ -1% | 16µM* | ? | 0% | 3%
- CC(C(=O)Nc1ccccc1-c1ccccc1)N1CCN(C(=O)c2ccccc2)CC1 (stereo unspecified)
→ 1% | 26µM* | ? | -2% | 3%
- CC(C(=O)Nc1ccccc1-c1ccccc1)N1CCN(Cc2ccccc2)CC1 (stereo unspecified)
→ 8% | ? | ? | 2% | -1%
- COc1ccccc1-n1c(=O)c2c3c(sc2n2c(SC(C)C)nnc12)CCC3
→ -8% | ? | ? | -2% | -2%
- Cc1ccc(-c2nc3sc(CCNS(=O)(=O)c4cc(F)ccc4F)c(C)n3n2)cc1
→ 18% | 21µM* | ? | . | 3%

Filtered by structure: the compounds so far containing an aryl methoxy group
Results follow in this order: miR-21 FLuc | TDP1 cell noCPT | TDP1 cell CPT | uPA generation | TDP1 inh
- COc1cc(CN2CCNC(=O)C2CC(=O)NC2CCCCC2)cc(OC)c1 (stereo unspecified)
→ 1% | -5% | 4% | 0% | 3%
- COc1ccccc1-n1c(=O)c2c3c(sc2n2c(SC(C)C)nnc12)CCC3
→ -8% | ? | ? | -2% | -2%

The list continues.
Results follow in this order: miR-21 FLuc | TDP1 cell noCPT | TDP1 cell CPT | uPA generation | TDP1 inh
- COc1ccc(-c2nc3sc(CCNS(=O)(=O)c4c(C)cc(C)cc4C)c(C)n3n2)cc1
→ 19% | ? | ? | . | 0%
- Cc1c(CCNC(=O)C(C)(C)C)sc2nc(-c3ccc(F)cc3)nn12
→ 1% | 26µM* | ? | . | 0%
- Cc1cccc(CC(=O)NCCc2sc3nc(-c4ccc(F)cc4)nn3c2C)c1
→ -8% | ? | ? | . | -3%
- CC1(C(=O)NS(=O)(=O)c2cccc(Cl)c2)CCN1C(=O)CCc1ccc(Cl)cc1Cl (stereo unspecified)
→ . | -6% | -21% | . | .
- CCN(CCN(C)C)C(=O)c1ccc2c(c1NCCO)C(=O)c1ccccc1C2=O
→ 10% | 23µM* | ? | -4% | 10%
- O=C1c2ccccc2C(=O)c2c1ccc(C(=O)N1CCCCC1)c2NCCO
→ -2% | ? | ? | 2% | 7%
- CC(C)CCNC(=O)Nc1cc(C(=O)NCc2cccc(F)c2)ccc1N1CCCC1
→ 23% | ? | -24% | . | 4%
- CCc1ccccc1NC(=O)Nc1cc(C(=O)NCc2ccc(OC)cc2)ccc1N1CCCC1
→ -16% | 9.2µM* | 12µM* | . | 4%
- CCc1ccccc1NC(=O)Nc1cc(C(=O)NCc2ccc(C)cc2)ccc1N1CCCC1
→ -8% | ? | ? | . | 4%
- CCc1ccccc1NC(=O)Nc1cc(C(=O)NCc2cccc(F)c2)ccc1N1CCCC1
→ -3% | 2.6µM* | 3.3µM* | . | 1%

Of the compounds above, three contain an NH in an aromatic ring.
Results follow in this order: miR-21 FLuc | TDP1 cell noCPT | TDP1 cell CPT | uPA generation | TDP1 inh
- CCc1cc2c(=O)[nH]c(N3CCOCC3)nc2s1
→ -35% | 11% | -10% | 0% | -1%
- Cc1cc2[nH]c3c4ccccc4nc(C)c3c2cc1C
→ . | 2.6µM* | 3.7µM* | 10µM* | .
- Cc1nc2nc(NCc3ccccc3Cl)[nH]n2c(=O)c1Cc1ccccc1
→ -6% | -6% | -4% | . | 10%

(cont.)
Results follow in this order: miR-21 FLuc | TDP1 cell noCPT | TDP1 cell CPT | uPA generation | TDP1 inh
- COc1ccccc1N=c1oc2cc(O)ccc2cc1C(=O)NCC1CCCO1 (stereo unspecified)
→ -66% | ? | ? | 0% | 4%
- COc1cccc(N=c2oc3cc(O)ccc3cc2C(=O)NCC2CCCO2)c1 (stereo unspecified)
→ -42% | 21µM* | ? | -4% | 7%
- Cc1cccc(N=c2oc3cc(O)ccc3cc2C(N)=O)c1
→ -6% | 15µM* | ? | 3% | 8%
- COc1ccc2cc(C(N)=O)c(=Nc3ccc(C)cc3)oc2c1
→ -5% | 8.2µM* | -17% | . | 1%
- N#CC(c1ccc(Cl)nn1)c1ccccc1Cl (stereo unspecified)
→ 0% | 4% | 0% | -5% | 4%
- O=C(c1ccc(F)cc1)N1CCCC(C(=O)N2CCN(c3ccccc3)CC2)C1 (stereo unspecified)
→ 0% | ? | -15% | 6% | 4%
- COCCNC(=O)Cc1c(C)c2c(cc(C)c3c(C(C)(C)C)coc32)oc1=O
→ 5% | 15µM* | 9.2µM* | -13% | .
